The record followed here is patent US5459131A, “Renin inhibitors” (American Cyanamid Company, priority 1991, dated 1995).

Protein sequences, listed by entry. Tags and fused reporters are not part of them. Residues count along the entry.
UniProt P00797, 67-406 limits assumed: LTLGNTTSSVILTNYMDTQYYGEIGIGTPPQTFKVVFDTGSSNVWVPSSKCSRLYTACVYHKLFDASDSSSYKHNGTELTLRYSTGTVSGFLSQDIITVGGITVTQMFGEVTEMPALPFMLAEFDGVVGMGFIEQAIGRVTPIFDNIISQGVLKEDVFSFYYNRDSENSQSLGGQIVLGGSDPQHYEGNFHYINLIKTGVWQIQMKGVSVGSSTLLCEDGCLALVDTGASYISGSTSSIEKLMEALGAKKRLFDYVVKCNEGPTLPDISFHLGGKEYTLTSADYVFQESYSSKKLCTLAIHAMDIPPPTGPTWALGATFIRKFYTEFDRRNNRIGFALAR

pIC50: −log10 of the molar value.

For the test, the target named is human kidney renin (Homo sapiens, UniProt P00797). In words: Radioimmunoassay screen for renin inhibitors (angiotensin I generation, then RIA quantitation). The following applies: read-out: Renin Inhibition IC50 Molar Concentration; purified human plasma angiotensinogen substrate, maleate buffer pH 6.0, 1 hour at 37° C. The protocol:
Radioimmunoassay Screen For Renin Inhibitors
The in vitro method for the screening of anti-renin compounds involves, first, angiotensin I generation, and second, the quantitation of the angiotensin I produced by radioimmunoassay.
The incubation medium consisted of 20 μl of purified human plasma angiotensinogen; (1) 10 μl of human kidney renin; (2) 5 μl of phenylmethylsulfonyl fluoride; 10 μl of disodium EDTA (10 mM); 10 μl of antirenin compound (5×10^-3 M, 5×10^-4 M, 5×10^-5 M) in dimethylformamide, or ethanol and a suitable amount of maleate buffer (77 mM, pH 6.0) to make a final volume of 500 μl . The reaction mixture is incubated for one hour at 37° C. and the enzymatic reaction is stopped by placing the tube in ice-cold water. The angiotensin I generated during the incubation is measured by a radioimmunoassay plasma renin activity kit (Clinical Assays, Inc.).
Radioimmunoassay Procedure
The incubation medium consisted of either 100 μl aliquots of the above reaction mixture or a standard amount of angiotensin I; 1000 μl of phosphate buffer (100 mM, pH 7.6) and 100 μl of (^125 I) angiotensin in a gamma-coat tube. After three hours of incubation at room temperature, the tubes are decanted, and the radioactivity of each tube is determined in a gamma counter. Duplicate determinations are performed for each incubation. The results are expressed in ng of angiotensin I generated per ml of generation medium per hour of incubation (ng/AI/ml/hr).
The results of this test on representative compounds of this invention appear in Table I, expressed as an IC50.
(1) The human plasma angiotensinogen derived from the blood of a person receiving oral contraceptive pills is purified by chromatography on a pepstatinaminohexyl-agarose column.
(2) Human renin is prepared from human kidney.

As for `O=C(C[C@H](Cc1ccccc1)C(=O)N[C@@H](Cc1cnc[nH]1)C(=O)N[C@@H](CC1CCCCC1)[C@@H](O)[C@@H]1CCCO1)c1ccco1`, the pIC50 was 7.54. With `CC(C)C[C@H](NC(=O)[C@@H](CC(=O)c1ccccc1)Cc1ccccc1)C(=O)N[C@@H](CC1CCCCC1)[C@@H](O)c1ccco1`, the pIC50 was 7.62. Then `CC(C)C[C@H](NC(=O)[C@@H](CC(=O)c1ccccc1)Cc1ccccc1)C(=O)N[C@@H](CC1CCCCC1)[C@@H](O)[C@@H]1CCCO1`, with 8.57; and `CC(C)C[C@H](NC(=O)[C@H](CC(=O)c1ccco1)Cc1ccccc1)C(=O)N[C@@H](CC1CCCCC1)[C@@H](O)[C@@H]1CCCO1`, with 6.72.

Take `CC(C)C[C@H](NC(=O)[C@H](CC(=O)c1ccccc1)Cc1ccccc1)C(=O)N[C@@H](CC1CCCCC1)[C@@H](O)c1ccco1`: the pIC50 was 5.40. For `O=C(C[C@@H](Cc1ccccc1)C(=O)N[C@@H](Cc1c[nH]cn1)C(=O)N[C@@H](CC1CCCCC1)[C@@H](O)[C@@H]1CCCO1)c1ccccc1` the value was 10.15.

As for `CC(C)CC(NC(=O)C(CC(=O)c1ccccc1)Cc1ccccc1)C(=O)NC(CC1CCCCC1)C(O)c1cccs1` (stereo not shown), the pIC50 is 6.31. As for `O=C(C[C@@H](Cc1ccccc1)C(=O)N[C@@H](Cc1cnc[nH]1)C(=O)N[C@@H](CC1CCCCC1)[C@@H](O)[C@@H]1CCCO1)c1ccco1`, the pIC50 was 9.07. `CC(C)C[C@H](NC(=O)[C@@H](CC(=O)c1ccco1)CC1CCCCC1)C(=O)N[C@@H](CC1CCCCC1)[C@@H](O)[C@@H]1CCCO1`: the pIC50 is 8.29. Take `CC(C)C[C@H](NC(=O)[C@@H](CC(=O)c1ccco1)Cc1ccccc1)C(=O)N[C@@H](CC1CCCCC1)[C@@H](O)[C@@H]1CCCO1`: the pIC50 was 11.00.

For the compound `CC(C)C[C@H](NC(=O)[C@H](CC(=O)c1ccco1)CC1CCCCC1)C(=O)N[C@@H](CC1CCCCC1)[C@@H](O)[C@@H]1CCCO1`, the pIC50 is 6.80. Then `CC(C)C[C@H](NC(=O)[C@@H](CC(=O)c1cccc(C(F)(F)F)c1)Cc1ccccc1)C(=O)N[C@@H](CC1CCCCC1)[C@@H](O)[C@@H]1CCCO1`, with 8.48; and `CC(C)C[C@H](NC(=O)[C@H](CC(=O)c1ccccc1)Cc1ccccc1)C(=O)N[C@@H](CC1CCCCC1)[C@@H](O)[C@@H]1CCCO1`, with 7.29.
